PMC6516834, “Tight bending of the Ndc80 complex provides intrinsic regulation of its binding to microtubules” (eLife, 2019)

Target: T1, Broccoli-GFP (shortened dimeric construct, Ndc80 1-556 / Nuf2 1-339 with GFP fused C-terminally to Nuf2) (S. cerevisiae, UniProt P40460 1-556; P33895 1-339)
T1 construct: Ndc80, S. cerevisiae, residues 1-556 (C-terminus removed); Nuf2, S. cerevisiae, residues 1-339 (C-terminus removed); also called His6-Ndc80/Nuf2-GFP; Ndc80/Nuf2; source: E. coli BL21, purified (Ni-charged IMAC resin, size exclusion chromatography); not shown: GFP, C-terminal, kept
T1 sequence (looked up) 1: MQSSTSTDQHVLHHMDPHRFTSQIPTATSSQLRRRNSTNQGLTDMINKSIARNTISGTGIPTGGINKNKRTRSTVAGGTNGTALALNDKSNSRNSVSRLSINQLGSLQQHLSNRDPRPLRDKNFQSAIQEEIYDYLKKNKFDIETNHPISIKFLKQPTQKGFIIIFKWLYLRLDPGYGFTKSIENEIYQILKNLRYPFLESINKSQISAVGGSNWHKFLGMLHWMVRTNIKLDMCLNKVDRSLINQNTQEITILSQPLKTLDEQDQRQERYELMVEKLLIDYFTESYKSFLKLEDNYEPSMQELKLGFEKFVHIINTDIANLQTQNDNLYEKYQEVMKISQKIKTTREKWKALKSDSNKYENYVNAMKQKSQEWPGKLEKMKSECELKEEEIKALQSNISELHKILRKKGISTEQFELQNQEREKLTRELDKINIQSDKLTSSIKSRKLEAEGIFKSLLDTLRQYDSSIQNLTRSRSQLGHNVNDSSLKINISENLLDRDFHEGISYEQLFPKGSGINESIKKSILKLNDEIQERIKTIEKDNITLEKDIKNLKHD
T1 sequence (looked up) 2: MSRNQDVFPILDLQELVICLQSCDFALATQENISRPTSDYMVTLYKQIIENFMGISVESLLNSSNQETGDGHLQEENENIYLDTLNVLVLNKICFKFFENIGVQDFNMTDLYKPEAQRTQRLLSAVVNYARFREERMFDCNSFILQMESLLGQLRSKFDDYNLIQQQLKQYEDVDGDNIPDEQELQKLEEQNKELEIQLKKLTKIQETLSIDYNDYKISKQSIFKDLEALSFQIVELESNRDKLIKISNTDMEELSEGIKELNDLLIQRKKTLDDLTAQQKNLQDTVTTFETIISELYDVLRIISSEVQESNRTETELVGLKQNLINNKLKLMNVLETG
Assay: single molecule TIRF microscopy (residence time on microtubules); as a1, with free Spc24/Spc25 dimer (wild type or mutant) added in trans: sixtyfold excess over Broccoli-GFP, tenfold excess over Ndc80-MIND-GFP
Settings: both partners purified

- mean residence time of Broccoli-GFP on microtubules with a sixtyfold excess of the binder: 3.3 s
B1: free Spc24/Spc25 dimer (complex, S. cerevisiae)
chain 1: MSQKDNLLDNPVEFLKEVRESFDIQQDVDAMKRIRHDLDVIKEESEARISKEHSKVSESNKKLNAERINVAKLEGDLEYTNEESNEFGSKDELVKLLKDLDGLERNIVSLRSELDEKMKLYLKDSEIISTPNGSKIKAKVIEPELEEQSAVTPEANENILKLKLYRSLGVILDLENDQVLINRKNDGNIDILPLDNNLSDFYKTKYIWERLGK
chain 2: MASIDAFSDLERRMDGFQKDVAQVLARQQNHARQQLQQFQAEMRQLHNQHQHLIDELQRLATQRTALQQQIHAAQQATNTTREQWRSYHERESELSRRQSTLAAQSRELDSLLQQRGKECVQLRARWAAQSGNDAAEVALYERLLQLRVLPGASDVHDVRFVFGDDSRCWIEVAMHGDHVIGNSHPALDPKSRATLEHVLTVQGDLAAFLVVARDMLLASL
notes: Spc24, S. cerevisiae; Spc25, S. cerevisiae; also called His6-Spc24/Spc25; wild-type Spc24/Spc25 dimer; source: E. coli BL21, purified (Ni-charged IMAC resin, size exclusion chromatography)
